Test: Exposure to 100% relative humidity at room temperature, then powder XRD
Format: physicochemical
Settings: open Petri dish, 100+5% RH, 12 days
Method: About 150 mg of Sitagliptin sulfate form S7 were put in an open Petrii dish and kept at 100+5% RH (relative humidity) and room temperature for 12 days. It was then analyzed by powder XRD.
For XRD measurement samples are mixed with small amount of Si powder and applied directly on silicon plate holder. The X-ray powder diffraction pattern was measured with Philips X'Pert PRO X-ray powder diffractometer, equipped with Cu irradiation source=1.54060 Å (Ångström), X'Celerator (2.022° 2Q) detector. Scanning parameters: angle range: 3-40 deg., step size 0.0167, time per step 39 s, continuous scan.

- Polymorphic form found by powder XRD after humidity exposure: transformation of Form S7 to S1
- Polymorphic form found by powder XRD after humidity exposure (listed as form S7): form S1
Substance: Sitagliptin sulfate isopropanol solvate [Form S7]
